The IC50 is the concentration needed to halve the response being measured. Read a low IC50 as greater potency.

Sequences of proteins named here, by UniProt entry; tags and fusion partners are left off. A line that says so, or that is headed by a name, gives the form on record, which may keep a tag or linker.
UniProt Q02750, with tags, fused parts or gaps DEL30-49/S218E/S222D: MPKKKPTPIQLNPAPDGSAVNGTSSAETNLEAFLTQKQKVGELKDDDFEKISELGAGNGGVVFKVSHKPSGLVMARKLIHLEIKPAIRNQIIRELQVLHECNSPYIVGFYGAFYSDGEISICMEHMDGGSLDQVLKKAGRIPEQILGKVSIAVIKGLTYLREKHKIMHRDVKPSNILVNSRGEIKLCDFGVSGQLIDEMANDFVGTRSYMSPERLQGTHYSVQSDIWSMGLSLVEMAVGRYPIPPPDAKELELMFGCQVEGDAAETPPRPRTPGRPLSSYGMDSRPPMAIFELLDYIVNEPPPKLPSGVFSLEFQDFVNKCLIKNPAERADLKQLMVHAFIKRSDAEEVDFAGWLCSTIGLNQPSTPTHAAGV

The assay concerns the target MEK1 (Homo sapiens, UniProt Q02750, DEL30-49/S218E/S222D). As to the kind of experiment: MEK1 inhibition, fluorescence polarization assay with IMAP beads (ERK1 / FI-Erktide coupled). On the technique in general: In fluorescence polarisation assays a small probe gives low polarisation when free and higher when bound to something large.

In the case of `Cn1c(=O)c(F)c(Nc2ccc(Br)cc2F)c2c(=O)n(C[C@@H](O)CO)cnc21` [Example 20, (R)-5-(4-Bromo-2-fluorophenylamino)-3-(2,3-dihydroxypropyl)-6-fluoro-8-methylpyrido[2,3-d]pyrimidine-4,7(3H,8H)-dione], the IC50 was at least 0.016 µM.

As for `Cn1cnc2c(c(Nc3ccc(I)cc3F)cc(=O)n2C)c1=O` [Example 1, 5-(2-fluoro-4-iodophenylamino)-3,8-dimethylpyrido[2,3-d]pyrimidine-4,7(3H,8H)-dione], the IC50 was at least 0.016 µM.

These data come from patent US8470837B2, “MAPK/ERK kinase inhibitors” (Takeda Pharmaceutical Company Limted, priority 2006, dated 2013).
